Results taken from paper PMC5028280 (Neuropharmacology, 2016).

Tested on: male ICR mice
Test: FOB, cannabinoid receptor antagonism of 3 mg/kg JWH-018 effects
Assay type: in vivo, mouse
Details: 3 mg/kg JWH-018 i.v. alone, or co-administration of 3 mg/kg rimonabant i.p.

Cc1c(C(=O)NN2CCCCC2)nn(-c2ccc(Cl)cc2Cl)c1-c1ccc(Cl)cc1 [rimonabant]
Muscle tone in FOB antagonism study: completely reversed
